Sampled rows, rich in hits. Any-hit rate of the full collection: about 0.2%.
Anesthetic bind: binds horse apoferritin like a general anesthetic | Potency, µM (doses to about 77.5 µM), actives largely listed as inhibitors | AID 485281 | 350,000 tested, 0.074% active | apoferritin/1-aminoanthracene competitive binding, fluorescence; further: nearly all actives have a fitted effect of over 20% in size
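Apoferritin-based anesthetic binding model; compound displacement of fluorescent 1-AMA measured as endpoint fluorescence after 10 minutes at room temperature, scaled to free-ligand and complex controls.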
miR-21 reporter: miR-21 reporter, rising signal | AID 2288 | HeLa miR-21 FLuc reporter, luciferase, 48 h | 340,000 tested, under 10 active | Potency, µM (doses to about 38.3 µM); active = well fitted rising curve with a large enough effect; inconclusive = small, poorly fitted or top-dose-only effect; inactive = no such curve, though single readings can be large or run the other way;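 note: miR-21 action dims this reporter so a rising signal means less miR-21 action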
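Compounds were titrated across several concentrations (up to approximately 40 uM) and incubated 48 hours with HeLa miR-21-FLuc reporter cells (miR-21 target sequence downstream of FLuc, endogenous miR-21). Readout was firefly luciferase luminescence after lytic detection reagent.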
LDHA inh: blocks human lactate dehydrogenase A; activity change, % (values are at about 110 or 230 µM); 480,000 tested, 0.15% active; purified LDHA, NADH/diaphorase-resazurin fluorescence; active compounds read low; AID 1347041; in the data active means activity change below about -30%
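Human LDH5 at 2 nM final in Tris HCl pH 7.4 with 0.06 mM NADH and 0.2 mM pyruvate, reacted 5 minutes at room temperature. Remaining NADH coupled via diaphorase/resazurin; resorufin fluorescence read at 0 and 20 minutes, normalized to enzyme-free and DMSO wells.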
Numbers stand for hits; 0 = inactive; - = no result given; ! = not confirmed by another sample. Unless noted, the call rests on the fitted dose curve; in most records, active means well fitted curve in the direction sought with a large enough effect; inconclusive means small, poorly fitted or top-dose-only effect, or another doubt; inactive means no such curve, though single readings can be large; an effect the other way counts as inactive or inconclusive.

SMILES	Anesthetic bind	miR-21 reporter	LDHA inh
CCCOc1ccc2ccccc2c1/C=C(/C#N)c1nc2ccccc2[nH]1	-	-	0
CC(C)Oc1ccc2ccccc2c1/C=C(\C#N)c1nc2ccccc2[nH]1	-	-	-30
O=C(COc1ncnc2ccc(Br)cc12)Nc1cccc(Br)c1	-	-	0
COc1ccc(/C=C2\C(=O)ON=C2c2ccccc2)cc1	0	0	-32
O=C1ON=C(c2ccccc2)/C1=C/c1cccnc1	0	0	0
O=C1ON=C(c2ccccc2)/C1=C/c1ccc(OS(=O)(=O)c2ccccc2)cc1	0	0	-39
O=C1ON=C(c2ccccc2)/C1=C/c1ccc(O)c(O)c1	0	0	0
Cc1cccc(C(C)C)c1NC(=O)COC(=O)c1ccc2ccccc2n1	-	-	0
O=c1c2ccccc2sn1-c1cccc(Cl)c1	-	-	0
CN(C)S(=O)(=O)c1cccc(-n2sc3ccccc3c2=O)c1	0	0	-43
COCC(=O)n1nc(-c2ccco2)nc1NCc1ccccc1Cl	0	0	0
COCC(=O)n1nc(NCc2ccccc2Cl)nc1NCc1ccccc1Cl	-	-	-49
O=C(OCc1nnnn1-c1ccccc1)C1(c2ccccc2F)CCCC1	-	-	0
O=C(OCC(=O)N(Cc1ccccc1)Cc1ccccc1)c1ccc2ccccc2n1	-	-	-37
CC(C)N(C(=O)COC(=O)c1ccc2ccccc2n1)C(C)C	-	-	0
Cc1ccc(OCCOCCN2CCN(C)CC2)c(C(C)(C)C)c1	0	0	-32
CC(C)(C)c1cc(Cl)ccc1OCCOCCN1CCCC1	0	0	0
COc1ccccc1Nc1nc(-c2ccc(CNC(C)=O)cc2)cs1	-	-	0
COc1ccc(C(=O)NCCc2c[nH]c3ccccc23)c(F)c1	-	-	0
COC(=O)c1ccc(CNCC(=O)Nc2ccc(C(=O)OC)cc2)cc1	0	0	0
COC(=O)c1ccc(NC(=O)CNCc2ccncc2)cc1	0	0	-30
CCCNc1nc2c(c(=O)n(C)c(=O)n2C)n1Cc1ccc(Br)cc1	-	-	0
NC(=O)C1CCN(Cc2ccc(C(F)(F)F)cc2)CC1	-	-	0
Cc1ccc(C2C(C#N)=C(N)OC3=C2C(=O)CC(C)(C)C3)cc1 (centres undefined)	-	-	0
CCN1CCN(C(=S)Nc2cccc(C(F)(F)F)c2)CC1	0	0	0
SMILES	Anesthetic bind	miR-21 reporter	LDHA inh
OCCN1CCN(C(=S)Nc2cccc(C(F)(F)F)c2)CC1	0	0	-33!
CC(=O)N1CCN(C(C(=O)O)c2cn(CC(=O)O)c3cc(F)ccc23)CC1 (centres undefined)	-	-	0
O=C(Nc1nccs1)C12CC3CC(CC(C3)C1)C2	-	-	0
C=C1C2(C(=O)Nc3nccs3)CCC(C2)C1(C)C (centres undefined)	7.9µM	0	0
CCCC(=O)Nc1ccc2nc(SCCOc3ccccc3)sc2c1	0	0	0
CCCC(=O)Nc1ccc2nc(SCC(=O)Nc3nccs3)sc2c1	0	0	-35
Cc1cccc(NC(=O)CCc2ncc(-c3ccc(F)cc3)o2)c1C	-	-	0
Cc1ccc(C(=O)/C=C\N(C)C)cc1C	-	-	0
O=C(Oc1ccc(Br)cc1C(=S)N1CCCCC1)c1cc([N+](=O)[O-])cc([N+](=O)[O-])c1	32µM	0	0
O=C(Oc1ccc(Br)cc1C(=S)N1CCCC1)c1ccccc1Cl	0	0	0
CC(=O)NC1=NN(C(C)=O)C(c2ccc(OCc3ccccc3F)c(Br)c2)S1 (centres undefined)	-	-	0
O=[N+]([O-])c1ccc(Nc2ccccc2O)c2nonc12	18µM	0	0
O=C(O)c1ccc(Nc2ccc([N+](=O)[O-])c3nonc23)cc1	0	0	0
CCOP(=O)(OCC)c1nc(Cc2ccc(OC)cc2)oc1NCc1cccnc1	-	-	0
O=C(CSc1nc2cc(Cl)ccc2s1)N1CCC(Cc2ccccc2)CC1	-	-	0
NS(=O)(=O)c1ccc(O)c(NC(=O)c2ccc([N+](=O)[O-])cc2)c1	0	0	-57
O=C(Nc1cc([N+](=O)[O-])ccc1O)c1cccc(C(=O)Nc2cc([N+](=O)[O-])ccc2O)c1	0	0	-35
O=C(Nc1cc([N+](=O)[O-])ccc1O)c1ccc2c(c1)C(=O)N(Cc1ccco1)C2=O	0	0	-56
O=C(Nc1cc([N+](=O)[O-])ccc1O)c1cccc([N+](=O)[O-])c1	0	0	0
NNC(=O)c1ccc([N+](=O)[O-])cc1	-	-	0
O=C(Nc1ccc(O)cc1C(=O)O)c1ccc2c(c1)C(=O)N(Cc1ccco1)C2=O	0	0	0
C=CC#CC[N+](C)(C)CC#Cc1cccc2ccccc12	-	-	0
COCCN(C(=O)C1CCN(C(=O)c2ccccc2C)CC1)c1c(N)n(CC(C)C)c(=O)[nH]c1=O	-	-	-47
Cc1ccccc1C(=O)N1CCC(C(=O)N(CC(C)C)c2c(N)n(CC(C)C)c(=O)[nH]c2=O)CC1	-	-	0

Source: PubChem
